Assay [1] has as its system Murine DMD exon 23. Kind of assay: Dystrophin exon 23 skipping in MDX mice (RT-PCR). The note with it: for Exon 23 Skipping % Diaphragm / Exon 23 Skipping % Heart / Exon 23 Skipping % Quad: MDX, IV.
Assay [2] concerns Murine DMD exon 23. Description: Dystrophin exon 23 skipping in wild type mice (RT-PCR). The note with it: for exon 23 skipping in quadriceps, transverse abdominis, diaphragm and heart: IV.
Another assay concerns dystrophin. Kind of assay: Dystrophin protein expression in MDX mice (Western Blot). Background: A western blot detects proteins with antibodies after separation by electrophoresis.

Consider 2 substances from patent US20230020092A1 (published 2023).

As to “5'-GGCCAAACCTCGGCTTACCTGAAAT-3'-C3-NH-PEG12-CPP12 (all PMO monomers) (SEQ ID NO: 244)”, the “dystrophin mRNA exon 23 correction, dose dependence” value in the assay on Murine DMD exon 23 [1] (MDX mice, 10 mpk or 30 mpk, one week post injection, quadriceps, transverse abdominis, diaphragm, heart) was “dose-dependent increased amount of dystrophin mRNA”. Further, the “duration of exon skipping and dystrophin mRNA correction” value with Murine DMD exon 23 [1] (MDX mice, single IV 30 mpk, 1, 2 or 4 weeks post injection) was “significant and consistent up to 4 weeks”. In the assay on Murine DMD exon 23 [1] (10 mpk, Sac. 1 w), the “Exon 23 Skipping % Diaphragm” value is listed as 4.3 ± 0.8%, the “Exon 23 Skipping % Heart” value is 2.2 ± 0.3% and the “Exon 23 Skipping % Quad” value worked out at 13.4 ± 3.7%. Moreover, in the assay on Murine DMD exon 23 [1] (30 mpk, Sac. 2 w), the “Exon 23 Skipping % Diaphragm” value is 17.5 ± 5.9%, the “Exon 23 Skipping % Heart” value is listed as 5.0 ± 3.1% and the “Exon 23 Skipping % Quad” value stood at 24.4 ± 7.4%. Moreover, the “dystrophin mRNA lacking exon 23 in local muscle” value in the assay with Murine DMD exon 23 [2] (WT mice (CD1), 24 hr after twice daily IM administration) was “significant amount of dystrophin mRNA lacking exon 23”. Besides, the “exon 23 skipping in quadriceps, transverse abdominis, diaphragm and heart” value in the assay on Murine DMD exon 23 [2] (WT mice (CD1), 8 mpk PMO or 10 mpk CPP12-PMO, five days post injection) is on record as “significantly increased amount of dystrophin mRNA with skipped exon 23”. For the same substance, the “exon 23 skipping in quadriceps, transverse abdominis, diaphragm and heart” value in the assay on Murine DMD exon 23 [2] (wild type mice (C57BL/10), 24 mpk PMO or 30 mpk CPP12-PMO, one-week post injection) is on record as “significantly increased amount of dystrophin mRNA with skipped exon 23”. Also, in the assay with dystrophin (IV 10 mpk vs 8 mpk PMO, 1 week), the “dystrophin level compared to that of PMO^DMD, diaphragm” value was found to be 15.7 fold; the “dystrophin level compared to that of PMO^DMD, heart” value is listed as above 300 fold; the “dystrophin level compared to that of PMO^DMD, quadriceps” value turned out to be 2.5 fold; the “dystrophin level compared to that of PMO^DMD, transverse abdominis” value came to 4.8 fold. The “dystrophin expression by western blotting” value in the assay with dystrophin (IV 10 mpk, 1 week post injection) was “enhanced dystrophin expression”.

As to “5'-GGCCAAACCTCGGCTTACCTGAAAT-3’-C3-NH-CPP1212; Amide chemistry (all PMO monomers) (SEQ ID NO: 252)”, the “exon skipping activity in MDX mice, comparison between constructs (in words)” value in the assay on Murine DMD exon 23 [1] (MDX mice, single IV injection) is listed as “significantly reduced activity”. Moreover, in the assay on Murine DMD exon 23 [1] (10 mpk, Sac. 1 w), the “Exon 23 Skipping % Diaphragm” value is recorded as below 10%, the “Exon 23 Skipping % Heart” value is below 1% and the “Exon 23 Skipping % Quad” value is below 1%.
